Source: PubChem (National Center for Advancing Translational Sciences (NCATS))
Hits are enriched below; roughly 3.7% of the tested compounds scored in any of these assays.
miR-21 reporter: miR-21 reporter, rising signal | AID 2288 | HeLa miR-21 FLuc reporter, luciferase, 48 h | 340,000 tested, under 10 active | Potency, µM (doses to about 38.3 µM); active = well fitted rising curve with a large enough effect; inconclusive = small, poorly fitted or top-dose-only effect; inactive = no such curve, though single readings can be large or run the other way;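 note: miR-21 action dims this reporter so a rising signal means less miR-21 action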
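HeLa miR-21-FLuc reporter line, endogenous miR-21; 2000 cells/well in DMEM/10% FBS; compound titration up to ~40uM final, 48 h, 37 degree Celsius; luciferase detection reagent, 15 min lysis, CCD luminescence.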
Nrf2 block: Nrf2 pathway inhibition; A549 ARE-Fluc reporter, luciferase luminescence, 18-24 h; Potency, µM (top dose mostly 46 µM), usual class: inhibitors; 2.1% of 360,000 active; further: nearly all actives have a fitted effect of over 60% in size
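Nrf2 activity is the BugLite luminescence, read 15 min after reagent at room temperature, following CellTiter-Fluor cytotoxicity readout (30 min, 37C). Compound titrations were applied for 18-24 h to 5000 A549 ARE_Fluc cells/well in 5% FBS OPTI-MEM.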
A549 tox: kills or reduces viability of A549 cells in Nrf2 counter-screen; A549 ARE-Fluc cells, CellTiter-Fluor viability, 18-24 h; Potency, µM (series often up to 46 µM), usual class: inhibitors; 0.16% of 390,000 active
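A549 ARE_Fluc cells in 5% FBS OPTI-MEM were exposed to compounds in concentration-response for 18-24 h at 37 deg C. Viability was read by CellTiter-Fluor fluorescence (Ex 405/Em 525) after 30 min, before the luciferase read.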
p53 reactivator: mutant p53 re-activation in reporter cells; H1299 p53-A138V BP100-luciferase reporter, luminescence, 24 h; Potency, µM (doses to about 92.2 µM), usual class: activators; 0.063% of 320,000 active; AID 504706; further: nearly all actives have a fitted effect of over 45% in size
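H1299 (p53-null), stable ts p53-A138V + BP100-Luc; 1000 cells/well, Opti-MEM/10% FBS; cpd 4 pt, 1:5; 24 h, 37 deg C, 5% CO2; detection reagent 10 min RT; luminescence.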
ClpP mod: qHTS Assay for Activators of ClpP; purified B. subtilis ClpP, FRET peptide cleavage, 20 min; Potency, µM (top dose mostly 57.5 µM); 1.9% of 340,000 active; AID 651965, 2013; active means well fitted falling curve with a large enough effect; inconclusive means small, poorly fitted or top-dose-only effect; inactive means no such curve, though single readings can be large or run the other way; further: the source files actives as falling curves though it sought activators and does not explain the sign; nearly all actives have a fitted effect of over 65% in size
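Buffer: 100 mM Tris/HCl pH8, 100 mM KCl, 0.05% low protease BSA, 2.5% glycerol, 0.01% Tween-20. ClpP 10 microg/mL final; 20 min RT; delta FRET normalized to ADEP and DMSO controls.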
Nrf2 ARE act: activates Nrf2 signaling | AREc32 ARE-luciferase reporter (MCF7-derived line), luminescence, 24 h | Potency, µM (top dose mostly 46.1 µM), most hits filed as activators | 0.31% of 410,000 active | AID 624171; further: nearly all actives have a fitted effect of over 65% in size
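AREc32 cells carrying an ARE-driven firefly luciferase reporter were seeded at 1000 cells/well in OPTI-MEM with 5% FBS, then exposed to compound for 24 hr at 37 deg C. Luminescence was read with Steady-Glo after 30 min at RT.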
Hits are given with their value; n = inactive; u = inconclusive; x = no result given. Unless noted, the call rests on the fitted dose curve; in most records, active means well fitted curve in the direction sought with a large enough effect; inconclusive means small, poorly fitted or top-dose-only effect, or another doubt; inactive means no such curve, though single readings can be large; an effect the other way counts as inactive or inconclusive.

SMILES | miR-21 reporter | Nrf2 block | A549 tox | p53 reactivator | ClpP mod | Nrf2 ARE act
CC(C)C[C@H]1CNC(=O)C(=O)N1C[C@@H]1CCCN1C[C@H](Cc1ccccc1)N1C[C@H](Cc2ccccc2)N(CC2CCCCC2)C(=O)C1=O | x | x | x | x | n | n
Cc1ccccc1CN1CCCN(CC(=O)Nc2c(C)cccc2C)S1(=O)=O | n | x | n | x | n | n
Cc1cc(Cl)c2oc(C(=O)N3CCN(c4ccncc4)CC3)c(C)c2c1 | x | u | u | x | n | n
COC(=O)C1CCN(C(=O)c2oc3c(Cl)cc(C)cc3c2C)CC1 | n | n | n | 16µM | n | n
Cn1c(=O)c2c(nc(N/N=C/c3cccs3)n2C)n(C)c1=O | n | n | n | n | x | n
Cn1c(N/N=C/c2cccs2)cc(=O)n(C)c1=O | n | n | n | n | n | 7.9µM
Cc1cccc(-n2ccnc2SCC(=O)Nc2nccs2)c1 | n | x | n | u | n | n
COc1cccc(-n2ccnc2SCC(=O)Nc2nccs2)c1 | n | x | n | n | 28µM | n
COc1ccc(NC(=O)C(OC(=O)CNC(=O)c2ccccc2)c2ccccc2)cc1Cl (stereo not given) | x | n | n | x | x | x
COc1ccccc1NS(=O)(=O)c1ccc(C(=O)N2CCN(c3ccccc3)CC2)cc1 | x | n | n | n | n | n
COc1ccccc1N(C)S(=O)(=O)c1ccc(Cl)c(C(=O)NNC(=O)c2ccccc2O)c1 | n | n | n | n | n | n
COc1ccccc1NS(=O)(=O)c1ccc(C(=O)N2CCCCCC2)cc1 | x | 10µM | n | n | n | n
COc1ccc(S(=O)(=O)N(C)c2ccc(C(=O)N3CCCCC3)cc2)cc1OC | n | 12µM | n | n | x | n
COc1ccccc1N(C)S(=O)(=O)c1ccc(Cl)c(C(=O)N2CCC2)c1 | x | n | n | n | 18µM | n
COc1ccc(S(=O)(=O)N2CCCN(CC(=O)Nc3ccc(OC)cc3OC)CC2)cc1 | n | u | n | x | n | n
CCc1ccc(CN(C(=O)c2cc(=O)c3ccc(C)cc3o2)C2CCS(=O)(=O)C2)cc1 (stereo not given) | n | n | n | x | n | n
COc1cc(NC(=O)c2cc(Cl)c(OC)c(Cl)c2)ccc1NC(=O)c1cc2ccccc2o1 | n | n | n | x | n | n
O=C(CN1C(=O)COc2ccccc21)N1CCCc2ccccc21 | n | 23µM | u | n | n | n
CC1CCCCN1C(=O)CSc1c2c(nc3cc(Cl)ccc13)CCCC2 (stereo not given) | n | n | n | x | n | u
O=C(Cn1ccc2ccccc2c1=O)NCCC(=O)Nc1cccc(Cl)c1 | n | u | n | n | 18µM | n
O=C(NCCc1ccccc1)c1cc(-c2ccccc2)nc2n[nH]c(-c3ccccc3)c12 | n | u | n | x | 28µM | n
Cc1ccc(-c2cc(C(=O)NCCc3ccccc3)c3c(-c4ccc(C)cc4)[nH]nc3n2)cc1 | n | u | u | x | n | n
CCCc1noc(-c2ccc(N3CCCCC3)c([N+](=O)[O-])c2)n1 | n | n | n | x | n | n
COc1ccc(NC(=O)C(=O)NCCc2csc3nc(-c4ccccc4C)nn23)cc1 | n | x | n | x | n | n
CC(=O)c1ccc(N2CCN(C(=O)CCc3nnc4n(C)c(=O)c5sccc5n34)CC2)cc1 | n | n | n | x | n | n
SMILES | miR-21 reporter | Nrf2 block | A549 tox | p53 reactivator | ClpP mod | Nrf2 ARE act
CC(C)CC1NC(=O)N(CC(=O)NC2CCCc3ccccc32)C1=O (stereo not given) | n | u | n | n | 28µM | n
Cc1cccc(Cn2c(=O)n3nc(-c4ccccc4)nc3c3ccccc32)c1 | n | 15µM | n | x | u | n
O=C(CSc1nc2nc(-c3cccs3)cc(C(F)(F)F)c2c(=O)[nH]1)NCc1ccco1 | n | n | n | n | 8.9µM | u
O=C(CSc1nc2nc(-c3cccs3)cc(C(F)(F)F)c2c(=O)[nH]1)C(F)(F)F | n | u | n | n | n | n
c1coc(C2Nc3ccccc3-c3nc4ccccc4n32)c1 (stereo not given) | n | n | u | u | 2.8µM | n
NC(=O)C1CCN(c2ccc(S(=O)(=O)N3CCC(Cc4ccccc4)CC3)cn2)CC1 | n | 1.6µM | n | n | x | n
O=S(=O)(c1ccc(Cl)nc1)N1CCC(Cc2ccccc2)CC1 | x | n | n | n | n | n
Cc1ccc(NS(=O)(=O)c2cc3c(cc2F)NC(=O)CC3)cc1C | x | n | n | x | x | x
CCCC1C(C(=O)OCC)=C(C)NC(C)=C1C(=O)OCC | n | x | n | n | 20µM | n
CCOC(=O)C1=C(C)NC(C)=C(C(=O)OCC)C1C(=O)O | n | n | x | n | n | n
Cc1cc(C)c(NC(=O)C(C)n2nc(C)c3sc4ccccc4c3c2=O)c(C)c1 (stereo not given) | n | u | n | x | n | n
COc1cc(OC)c2c(-c3cccc(-c4ccc(NC(C)=O)cc4)c3)cc(=O)oc2c1 | x | u | n | u | u | n
CCOC(=O)c1ccc(-c2cccc(-c3cc(=O)oc4cc(OC)cc(OC)c34)c2)cc1 | x | n | n | n | 20µM | n
CC(=O)N1CCCC1c1nc2ccccc2n1Cc1ccccc1F (stereo not given) | u | u | n | x | n | n
O=C(CCN1CCN(c2ccccc2F)CC1)Nc1ccccc1F | n | x | n | n | 16µM | n
COc1cc2nc(NC3CCN(Cc4ccccc4)CC3)nc(N3CCCN(C)CC3)c2cc1OC | x | x | x | x | n | x
COc1ccc(-c2ccc3ncnc(NCC4CCCO4)c3c2)cc1OC (stereo not given) | x | u | n | x | x | x
O=C(Nc1cccc2ccccc12)N1CCN(c2ccccc2)CC1 | n | x | n | n | n | n
O=C(Nc1cccc2ccccc12)N1CC=CCC1 | n | n | n | n | 28µM | n
Cc1ccc(S(=O)(=O)N2CCCc3cc(NC(=O)c4ccc(C(F)(F)F)cc4)ccc32)cc1 | n | x | n | x | n | n
Nc1c(N(CCC2=CCCCC2)C(=O)Cc2ccc(F)cc2)c(=O)[nH]c(=O)n1Cc1ccccc1 | x | u | n | n | n | n
Nc1c(N(CCC2=CCCCC2)C(=O)COc2ccc(F)cc2Cl)c(=O)[nH]c(=O)n1Cc1ccccc1 | x | 23µM | u | x | n | n
COc1ccc(CNC(=O)CSc2nc3ccsc3c(=O)n2Cc2ccccc2Cl)cc1 | n | n | n | x | n | n
O=C1c2ccccc2-c2onc3ccc(Oc4ccccc4)c1c23 | n | u | u | n | n | 7.1µM
NC(=O)NOCc1ncc(C(F)(F)F)cc1Cl | n | n | n | n | 28µM | n
CO/N=C/NC(=O)NOCc1ncc(C(F)(F)F)cc1Cl | n | u | n | n | n | n
O=C1c2ccccc2NC(c2ccc(Br)s2)N1O (stereo not given) | x | 18µM | n | x | n | n
